# Binding of CDR-mutated scFvs to a peptide of the spike HR2 region

From the AlphaSeq antibody data of Engelhart et al. 2022 (doi:10.1038/s41597-022-01779-4), copy in the FLAb collection.

Target peptide (SARS-CoV-2 spike, HR2 region): PDVDLGDISGINAS

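The parent was found by panning a naive human phage display library on the peptide. AAYL52 was designed without a model: most single CDR substitutions and a random sample of double and triple ones. The scFvs were displayed on barcoded MATa yeast, the peptide on MATalpha yeast. Binding brings cells together so that they mate, and sequencing counts the barcode pairs among the diploids. Read counts were normalised to the haploid input and turned into Kd by a linear fit to BCL2-family pairs of known affinity, for each replicate. Each pool was mated in three replicate cultures.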

Parent scFv Ab-95: VH joined to VL by a (GGGGS)3 linker. Changes lie in the light chain CDRs alone.
VH: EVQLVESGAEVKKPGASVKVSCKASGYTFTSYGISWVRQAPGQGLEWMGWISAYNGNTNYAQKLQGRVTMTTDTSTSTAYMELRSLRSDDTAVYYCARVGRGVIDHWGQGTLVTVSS
VL: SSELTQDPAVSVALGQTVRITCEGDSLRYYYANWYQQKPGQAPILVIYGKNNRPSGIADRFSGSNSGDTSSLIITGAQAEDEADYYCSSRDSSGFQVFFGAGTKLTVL

Changes read parent residue, position, new residue, counted from the first residue of the VL shown. Affinities are written as log10 Kd with Kd in nM; a lower number is a better binder. A mean of the replicates is given; it leaves out those without a signal. Where no diploid with the target was found in any replicate, the entry reads "nd": below detection, most likely a poor binder, though not proof of it. Three control strains display no target. For library AAYL52, 28% of the pairings with them gave a signal, with a median of 3.91 and one signal in twenty below 2.90, so weak values seen in few replicates may be background.

3.36 (1 of 3 replicates): N33R G49Y V97K.
3.39 (3 of 3 replicates): L27S Y29Q N51E.
2.79 (3 of 3 replicates): F95V Q96T V97L.
3.13 (3 of 3 replicates): E23M Y30F A32S.
3.15 (3 of 3 replicates): D25I N52Y S92T.
2.14 (3 of 3 replicates): Y30G N33T F95R.
2.87 (3 of 3 replicates): E23T D25T G94D.
4.20 (1 of 3 replicates): L27P N51C Q96M.
2.37 (3 of 3 replicates): D25A N52A D91P.
nd (0 of 3 replicates): K50L N51S S55C.
nd (0 of 3 replicates): R28E R90E S93A.
2.67 (3 of 3 replicates): N52Q P54E S55W.
nd (0 of 3 replicates): L27G Y29V V97H.
4.11 (3 of 3 replicates): S26E A32T Q96G.
3.41 (1 of 3 replicates): Y31F N52P P54L.
2.13 (3 of 3 replicates): Y29M Y30E S88G.
3.08 (2 of 3 replicates): Y29K R53V P54F.
2.99 (3 of 3 replicates): N51G S92C G94R.
4.56 (3 of 3 replicates): S26Y G94T Q96P.
3.95 (2 of 3 replicates): N51C S92F Q96M.
2.81 (3 of 3 replicates): E23Y S55A V97N.
4.68 (1 of 3 replicates): Y31W N52C D91Q.
2.81 (3 of 3 replicates): Y31M P54T Q96A.
4.01 (1 of 3 replicates): E23R G49V R90T.
4.03 (3 of 3 replicates): L27H Y31C V97W.
2.09 (3 of 3 replicates): Y30I D91A.
3.19 (3 of 3 replicates): R28H N33L P54M.
0.78 (3 of 3 replicates): Y30N S92T.
nd (0 of 3 replicates): Y30V G49Q P54I.
0.96 (3 of 3 replicates): E23M Y31S A32P.
nd (0 of 3 replicates): E23L P54C S89E.
4.54 (1 of 3 replicates): L27H R90V F95W.
nd (0 of 3 replicates): L27Q R28N P54M.
2.96 (1 of 3 replicates): G24V Y30K.
nd (0 of 3 replicates): G24Y G49F G94H.
2.82 (3 of 3 replicates): Y31N G49A N52H.
2.66 (3 of 3 replicates): N52D G94Q F98M.
2.82 (3 of 3 replicates): N51E D91I Q96E.
nd (0 of 3 replicates): L27M S88N G94R.
nd (0 of 3 replicates): K50H S88D F98K.
nd (0 of 3 replicates): P54W S89Q G94R.
2.69 (3 of 3 replicates): Y30C G49A S92E.

For reference, 5 entries of the list once more:

With N52Q P54E S55W the result was 2.67 (3 of 3 replicates).
With N51G S92C G94R the result was 2.99 (3 of 3 replicates).
With G24Y G49F G94H the result was nd (0 of 3 replicates).
With Y29M Y30E S88G the result was 2.13 (3 of 3 replicates).
With Y30N S92T the result was 0.78 (3 of 3 replicates).